# OPERA 2.9 data: melting point values

From the experimental data distributed with OPERA 2.9.

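These are experimental values that the OPERA curators gathered from public databases to train and test their QSAR models. A listed value is a point estimate from one report or more. Method, purity and exact conditions of the single measurements are not given. The measured form (salt, isomer or mixture) is not always the one drawn. Unmarked limits or estimates from the upstream databases cannot be ruled out.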

The melting point is given in degrees Celsius.

CNS(=O)(=O)c1cccc(CN)c1 has melting point 130 °C.
NC(=S)N1CCCC1 has melting point 141 °C.
Cc1cc(N)n(CCC#N)n1 has melting point 105 °C.
COC(=O)c1ccc(C(=O)O)s1 has melting point 195 °C.
CC(C)CCC(=O)c1ccccc1 has melting point -2 °C.
Cc1ccc(C(=O)C2CC2)cc1 has melting point 48 °C.
COc1cc(C(=O)O)ccc1OCc1ccccc1 has melting point 175 °C.
Cc1cccc(OC(C)C(=O)O)c1C (configuration not stated) has melting point 124 °C.
O=C(NCc1ccccc1)c1ccccc1O has melting point 80 °C.
Nc1nc2ccccc2n2nnnc12 has melting point 290 °C.
Nc1ccccc1C(=O)NC1CCCC1 has melting point 175 °C.
COc1ccc(-c2nc(N)sc2-c2ccc(OC)cc2)cc1 has melting point 208 °C.
CSc1ccc(C(=O)C(C)C)cc1 has melting point 42.5 °C.
COC(=O)C(=O)CC(=O)c1ccncc1 has melting point 94 °C.
O=C(O)COc1ccc(Cl)c2ccccc12 has melting point 163 °C.
O=C(O)C1CC(=O)N(c2ccc(Cl)cc2)C1 (configuration not stated) has melting point 150 °C.
CC(=O)c1cn(C)nc1C has melting point 73 °C.
O=C(O)CNc1nc2ccccc2s1 has melting point 175 °C.
CCOC(=O)CN1C(=O)CNC1=O has melting point 110 °C.
CCOc1ccc(C(=O)O)cn1 has melting point 185 °C.
CNS(=O)(=O)c1ccc(N)cc1 has melting point 111 °C.
CC(=O)c1ccc(CC(=O)O)cc1 has melting point 110 °C.
Nc1ccccc1-n1cnnn1 has melting point 85 °C.
CCCCC(CC)COC(=O)/C=C\C(=O)O (stereo partly drawn) has melting point -28 °C.
O=C(Nc1ccc(O)cc1)c1ccc(Cl)cc1 has melting point 247 °C.
CSc1noc(N)n1 has melting point 101 °C.
CCOc1ccc(N2CC(C(=O)O)CC2=O)cc1 (configuration not stated) has melting point 135 °C.
COc1ccc2c(CCl)cc(=O)oc2c1 has melting point 190 °C.
Nc1ncc(Cc2cccc(F)c2)s1 has melting point 83 °C.
CC(O)c1nc2ccccc2s1 (configuration not stated) has melting point 62 °C.
Nn1c(SCc2ccccc2)n[nH]c1=S has melting point 158 °C.
CC1(C)CC(=O)c2sc(N)nc2C1 has melting point 213 °C.
COc1ccc(-n2c(=S)[nH]c3ccccc32)cc1 has melting point 214 °C.
CS(=O)(=O)c1cccc(C(=O)Cl)c1 has melting point 86 °C.
CCNC(=O)c1cccc(N)c1 has melting point 70 °C.
O=C(CCl)c1ccc2c(c1)CCCC2 has melting point 63 °C.
Cc1nc([N+](=O)[O-])cn1CCC#N has melting point 114.5 °C.
CC1CCCCN1S(=O)(=O)c1ccc(C(=O)O)cc1 (configuration not stated) has melting point 203 °C.
CCOc1ccc(C(=O)CBr)cc1 has melting point 58 °C.
CC(=O)Nc1cccc(C(=O)O)n1 has melting point 227 °C.
CNC1=NS(=O)(=O)c2ccccc21 has melting point 270 °C.
Nc1ccc(-c2cn3ccsc3n2)cc1 has melting point 200 °C.
Cc1cc(C=O)c(C)[nH]1 has melting point 140 °C.
O=C1NC(=O)N2CCCCC12 (configuration not stated) has melting point 115 °C.
NC(=[NH2+])SCC[NH3+].[Br-].[Br-] has melting point 193 °C.
CC(=O)c1ccc2[nH]c(=O)[nH]c2c1 has melting point 265 °C.
CC[N+](C)(C)Cc1ccccc1Br.Cc1ccc(S(=O)(=O)[O-])cc1 has melting point 98 °C.
CCCCC[C@H]1CC[C@H](C(=O)O)CC1 has melting point 53.5 °C.
O=c1oc2ccccc2o1 has melting point 117 °C.
Nc1ncccc1Cl has melting point 60.5 °C.
O=C(O)C1Cc2cc(Cl)ccc2O1 (configuration not stated) has melting point 116 °C.
O=C1CCC[C@@H]2[C@H]3CCC[N+]4([O-])CCC[C@@H](CN12)[C@@H]34 (some centres not stated) has melting point 208 °C.
CN(C)c1ccc(C(=O)O)cc1[N+](=O)[O-] has melting point 199 °C.
CC(=O)c1ccc(OCC(=O)N2CCOCC2)cc1 has melting point 57 °C.
O=C(CCl)NC(=O)c1ccccc1 has melting point 158 °C.
Nc1nc(-c2sccc2Br)cs1 has melting point 152 °C.
NS(=O)(=O)C1CCS(=O)(=O)C1 (configuration not stated) has melting point 145 °C.
Nc1n[nH]c(-c2cccc(Br)c2)n1 has melting point 220 °C.
O=C1CSC(=S)N1c1ccc(F)cc1 has melting point 138 °C.
O=C(O)CCCOc1ccc(Cl)cc1 has melting point 115 °C.

Excerpt, the opening 7 entries:

The entry for CNS(=O)(=O)c1cccc(CN)c1 lists melting point 130 °C.
The entry for NC(=S)N1CCCC1 lists melting point 141 °C.
The entry for Cc1cc(N)n(CCC#N)n1 lists melting point 105 °C.
The entry for COC(=O)c1ccc(C(=O)O)s1 lists melting point 195 °C.
The entry for CC(C)CCC(=O)c1ccccc1 lists melting point -2 °C.
The entry for Cc1ccc(C(=O)C2CC2)cc1 lists melting point 48 °C.
The entry for COc1cc(C(=O)O)ccc1OCc1ccccc1 lists melting point 175 °C.